Laboratory results from ChEMBL document CHEMBL5725483, “Pyrrolopyrimidine derivatives as TAM inhibitors” (2018).

Target: T1, Phosphatidylinositol 4,5-bisphosphate 3-kinase catalytic subunit delta isoform (Homo sapiens, UniProt O00329)
T1 sequence (O00329 whole entry): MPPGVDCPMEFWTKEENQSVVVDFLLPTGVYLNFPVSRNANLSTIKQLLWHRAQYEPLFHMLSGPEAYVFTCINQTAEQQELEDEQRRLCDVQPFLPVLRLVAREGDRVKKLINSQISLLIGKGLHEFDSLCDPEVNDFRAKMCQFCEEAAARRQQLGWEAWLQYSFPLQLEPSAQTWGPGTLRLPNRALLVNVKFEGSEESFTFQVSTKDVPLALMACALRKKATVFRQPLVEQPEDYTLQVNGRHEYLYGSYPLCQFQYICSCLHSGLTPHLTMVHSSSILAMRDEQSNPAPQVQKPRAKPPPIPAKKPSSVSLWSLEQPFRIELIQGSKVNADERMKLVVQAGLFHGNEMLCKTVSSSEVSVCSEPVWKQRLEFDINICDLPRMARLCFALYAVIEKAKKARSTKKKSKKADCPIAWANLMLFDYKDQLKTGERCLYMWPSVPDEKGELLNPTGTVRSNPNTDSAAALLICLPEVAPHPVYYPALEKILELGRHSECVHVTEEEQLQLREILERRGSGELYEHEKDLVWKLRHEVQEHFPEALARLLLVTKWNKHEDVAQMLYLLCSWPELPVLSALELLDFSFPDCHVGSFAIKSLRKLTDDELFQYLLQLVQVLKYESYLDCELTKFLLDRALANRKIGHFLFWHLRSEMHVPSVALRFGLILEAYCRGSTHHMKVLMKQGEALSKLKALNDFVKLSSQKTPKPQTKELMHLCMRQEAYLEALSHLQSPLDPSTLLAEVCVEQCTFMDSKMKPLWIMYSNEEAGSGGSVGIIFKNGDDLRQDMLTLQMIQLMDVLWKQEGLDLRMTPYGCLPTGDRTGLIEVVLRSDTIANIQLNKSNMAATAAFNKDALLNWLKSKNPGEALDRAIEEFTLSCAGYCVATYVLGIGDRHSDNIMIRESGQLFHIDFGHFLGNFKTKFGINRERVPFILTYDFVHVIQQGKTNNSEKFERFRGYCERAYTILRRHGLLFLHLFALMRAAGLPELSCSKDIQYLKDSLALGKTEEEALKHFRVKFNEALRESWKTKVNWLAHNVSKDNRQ
Assay: PI3K Delta Assay: In some embodiments, the PI3Kδ inhibitor is selective. By ¿selective¿ is meant that the compound binds to or inhibits a kinase with greater affinity or potency, respectively, compared to at least one other kinase. In some embodiments, the PI3Kδ inhibitors are selective inhibitors of PI3Kδ (e.g., over PI3Kα, PI3Kβ and PI3Kγ). In some embodiments, selectivity can be at least about 2-fold, 5-fold, 10-fold, at least about 20-fold, at least about 50-fold, at least about 100-fold, at least about 200-fold, at least about 500-fold or at least about 1000-fold. Selectivity can be measured by methods routine in the art. In some embodiments, selectivity can be tested at the Km ATP concentration of each enzyme. In some embodiments, the selectivity of compounds described herein can be determined by cellular assays associated with particular PI3K kinase activity.

CC(Nc1ncnc2[nH]cnc12)c1cc(Cl)c2ccnnc2c1-c1cccc(F)c1 (single isomer, unassigned)
IC50: < 50 nM

Cc1csc2nc(C(C)Nc3ncnc4[nH]cnc34)c(-c3cccc(F)c3)c(=O)n12 (stereo not drawn)
IC50: < 50 nM

Cc1csc2nc([C@H](C)Nc3ncnc4[nH]cnc34)c(-c3cccc(F)c3)c(=O)n12 [DEZAPELISIB]
IC50: < 50 nM
